Reference: patent publication EP4675276A1

Sequences of proteins named here, by UniProt entry; tags and fusion partners are left off. Residues count along the entry.
UniProt P69905, 2-142, chain 1 of 2: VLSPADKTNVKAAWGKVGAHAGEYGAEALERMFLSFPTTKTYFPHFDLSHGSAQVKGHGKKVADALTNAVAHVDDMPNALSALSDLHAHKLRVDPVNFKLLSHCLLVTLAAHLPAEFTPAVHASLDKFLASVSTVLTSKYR

Legend:
human hemoglobin (human) [1] = target: human hemoglobin (human) (UniProt P69905); assay: cell-based or functional assay
human hemoglobin (human) [2] = target: human hemoglobin (human) (UniProt P69905); assay: extrapolated end point of the titration of 921 pmol/mL Hb (straight-line fit of Table 6A)
human hemoglobin (human) [3] = target: human hemoglobin (human) (UniProt P69905); assay: OC-Hemodia Auto III immunoassay, Hb 6.2 pmol/mL, Hpt 6.2 pmol/mL (1 Unit), no stool, initial value
human hemoglobin (human) [4] = target: human hemoglobin (human) (UniProt P69905); assay: OC-Hemodia Auto III immunoassay, Hb 6.2 pmol/mL, Hpt 3.1 pmol/mL (0.5 Unit), no stool, initial value
human hemoglobin (human) [5] = target: human hemoglobin (human) (UniProt P69905); assay: OC-Hemodia Auto III immunoassay, Hb 9.3 pmol/mL, Hpt 9.3 pmol/mL (1 Unit), 0.5% feces, initial value
human hemoglobin (human) [6] = target: human hemoglobin (human) (UniProt P69905); assay: OC-Hemodia Auto III immunoassay, Hb 6.2 pmol/mL, Hpt 1.55 pmol/mL (0.25 Unit), no stool, initial value
human hemoglobin (human) [7] = target: human hemoglobin (human) (UniProt P69905); assay: OC-Hemodia Auto III immunoassay, Hb 9.3 pmol/mL, Hpt 4.65 pmol/mL (0.5 Unit), 0.5% feces, initial value
human hemoglobin (human) [8] = target: human hemoglobin (human) (UniProt P69905); assay: OC-Hemodia Auto III immunoassay, Hb 6.2 pmol/mL, Hpt 0.775 pmol/mL (0.125 Unit), no stool, initial value
human hemoglobin (human) [9] = target: human hemoglobin (human) (UniProt P69905); assay: OC-Hemodia Auto III immunoassay, Hb 9.3 pmol/mL, Hpt 2.325 pmol/mL (0.25 Unit), 0.5% feces, initial value
human hemoglobin (human) [10] = target: human hemoglobin (human) (UniProt P69905); assay: 59.4 µg/mL (921 pmol/mL) Hb + Hpt original solution at 0.063 % (vol/vol); free Hb by latex reagent No.16 + No.11
human hemoglobin (human) [11] = target: human hemoglobin (human) (UniProt P69905); assay: 59.4 µg/mL (921 pmol/mL) Hb + Hpt original solution at 0.125 % (vol/vol); free Hb by latex reagent No.16 + No.11
human hemoglobin (human) [12] = target: human hemoglobin (human) (UniProt P69905); assay: 59.4 µg/mL (921 pmol/mL) Hb + Hpt original solution at 0.250 % (vol/vol); free Hb by latex reagent No.16 + No.11
human hemoglobin (human) [13] = target: human hemoglobin (human) (UniProt P69905); assay: 59.4 µg/mL (921 pmol/mL) Hb + Hpt original solution at 0.500 % (vol/vol); free Hb by latex reagent No.16 + No.11
human hemoglobin (human) [14] = target: human hemoglobin (human) (UniProt P69905); assay: 59.4 µg/mL (921 pmol/mL) Hb + Hpt original solution at 1.000 % (vol/vol); free Hb by latex reagent No.16 + No.11

| Substance | Residual Hb ratio (%), 37°C 7 days, Hpt 0.775 pmol/mL (0.125 Unit), no stool (human hemoglobin (human) [1]) [%] | Residual Hb ratio (%), 37°C 7 days, Hpt 1.55 pmol/mL (0.25 Unit), no stool (human hemoglobin (human) [1]) [%] | Residual Hb ratio (%), 37°C 7 days, Hpt 2.325 pmol/mL (0.25 Unit), 0.5% feces (human hemoglobin (human) [1]) [%] | Residual Hb ratio (%), 37°C 7 days, Hpt 3.1 pmol/mL (0.5 Unit), no stool (human hemoglobin (human) [1]) [%] | Residual Hb ratio (%), 37°C 7 days, Hpt 4.65 pmol/mL (0.5 Unit), 0.5% feces (human hemoglobin (human) [1]) [%] | Residual Hb ratio (%), 37°C 7 days, Hpt 6.2 pmol/mL (1 Unit), no stool (human hemoglobin (human) [1]) [%] | Residual Hb ratio (%), 37°C 7 days, Hpt 9.3 pmol/mL (1 Unit), 0.5% feces (human hemoglobin (human) [1]) [%] | Residual Hb ratio (%), 37°C 14 days, Hpt 0.775 pmol/mL (0.125 Unit), no stool (human hemoglobin (human) [1]) [%] | Residual Hb ratio (%), 37°C 14 days, Hpt 1.55 pmol/mL (0.25 Unit), no stool (human hemoglobin (human) [1]) [%] | Residual Hb ratio (%), 37°C 14 days, Hpt 2.325 pmol/mL (0.25 Unit), 0.5% feces (human hemoglobin (human) [1]) [%] | Residual Hb ratio (%), 37°C 14 days, Hpt 3.1 pmol/mL (0.5 Unit), no stool (human hemoglobin (human) [1]) [%] | Residual Hb ratio (%), 37°C 14 days, Hpt 4.65 pmol/mL (0.5 Unit), 0.5% feces (human hemoglobin (human) [1]) [%] | Residual Hb ratio (%), 37°C 14 days, Hpt 6.2 pmol/mL (1 Unit), no stool (human hemoglobin (human) [1]) [%] | Residual Hb ratio (%), 37°C 14 days, Hpt 9.3 pmol/mL (1 Unit), 0.5% feces (human hemoglobin (human) [1]) [%] | residual Hb ratio, 1 Unit of Hpt, 37°C 7 days, no stool (human hemoglobin (human) [1]) [%] | Amount of Hpt original solution when free-Hb concentration became 0 (human hemoglobin (human) [2]) | Ratio to no Hpt addition (%) (human hemoglobin (human) [3]) | Ratio to no Hpt addition (%) (human hemoglobin (human) [4]) | Ratio to no Hpt addition (%) (human hemoglobin (human) [5]) | Ratio to no Hpt addition (%) (human hemoglobin (human) [6]) | further results |
| --- | --- | --- | --- | --- | --- | --- | --- | --- | --- | --- | --- | --- | --- | --- | --- | --- | --- | --- | --- | --- | --- |
| Equine Hpt (without enzyme treatment) | 46 | 48 | 21 | 63 | 39 | 102 | 93 | 18 | 28 | 18 | 57 | 38 | 100 | 95 | > 70 | 3.62 % (vol/vol) | 50 | 74 | 67 | 90 | Ratio to no Hpt addition (%) (human hemoglobin (human) [7]): 85%; Ratio to no Hpt addition (%) (human hemoglobin (human) [8]): 94%; Ratio to no Hpt addition (%) (human hemoglobin (human) [9]): 93%; free-Hb concentration remaining (human hemoglobin (human) [10]): 58.2 µg/mL; free-Hb concentration remaining (human hemoglobin (human) [11]): 58.3 µg/mL; free-Hb concentration remaining (human hemoglobin (human) [12]): 54.6 µg/mL; free-Hb concentration remaining (human hemoglobin (human) [13]): 51 µg/mL; free-Hb concentration remaining (human hemoglobin (human) [14]): 43.2 µg/mL |
| Equine dHpt (ENGase) | 47 | 52 | 22 | 51 | 36 | 97 | 74 | 25 | 34 | 19 | 34 | 34 | 99 | 73 | > 70 | 1.35 % (vol/vol) | 93 | 106 | 96 | 101 | Ratio to no Hpt addition (%) (human hemoglobin (human) [7]): 101%; Ratio to no Hpt addition (%) (human hemoglobin (human) [8]): 101%; Ratio to no Hpt addition (%) (human hemoglobin (human) [9]): 100%; free-Hb concentration remaining (human hemoglobin (human) [10]): 55.4 µg/mL; free-Hb concentration remaining (human hemoglobin (human) [11]): 51.8 µg/mL; free-Hb concentration remaining (human hemoglobin (human) [12]): 45.3 µg/mL; free-Hb concentration remaining (human hemoglobin (human) [13]): 34.7 µg/mL; free-Hb concentration remaining (human hemoglobin (human) [14]): 15.6 µg/mL |
